{"source": "patent US7429670B2", "about": "“Synthesis of derivatives of ginkgolide C” (The Trustees of Columbia University in the City of New York, priority 2003, dated 2008)", "molecular_target": "T1, human homomeric α1 GlyR (Homo sapiens, UniProt P23415)", "T1 construct": "expressed in transfected cells", "T1 sequence (P23415 29-457)": "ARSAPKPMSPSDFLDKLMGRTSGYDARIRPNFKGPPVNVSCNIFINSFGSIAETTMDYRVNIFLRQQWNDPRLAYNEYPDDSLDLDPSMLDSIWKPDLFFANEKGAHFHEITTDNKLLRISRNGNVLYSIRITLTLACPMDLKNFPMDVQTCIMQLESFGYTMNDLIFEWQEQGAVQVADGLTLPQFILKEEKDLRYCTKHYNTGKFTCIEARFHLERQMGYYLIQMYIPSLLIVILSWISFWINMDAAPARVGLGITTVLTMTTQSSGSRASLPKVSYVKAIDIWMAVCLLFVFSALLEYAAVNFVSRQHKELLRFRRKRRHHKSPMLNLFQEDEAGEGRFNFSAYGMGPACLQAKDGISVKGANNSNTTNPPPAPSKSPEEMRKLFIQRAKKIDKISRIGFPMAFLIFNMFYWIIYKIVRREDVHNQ", "experiment": "Functional glycine receptor assay (FLIPR Membrane Potential Assay)", "format": "cell-based", "details": "concentration of 10 mM GC (3); 100 mM glycine (so in the source)", "data": [{"substance": "Ginkgolide C [GC (3), reference compound]", "values": [{"measurement": "inhibition of the response induced by glycine", "value": 97, "unit": "%"}]}]}
